{
  "source": "paper PMC10344917",
  "about": "“Affinity and cooperativity modulate ternary complex formation to drive targeted protein degradation” (Nature Communications, 2023)",
  "key": {"BRD4 [1]": {"biological_target": "T1, BRD4 (Homo sapiens, UniProt O60885)", "T1 construct": "endogenous in cells; host or cells: A375", "experiment": "BRD4 degradation, MSD assay, dose response", "assay_type": "cell-based", "design": "AUC (area under the dose-response curve): unit not given beside the values", "experimental": "A375 cells were treated with SMARCA2 or BRD4 degraders for 2 h (4 h for BRD4) and generated lysates. SMARCA2 or BRD4 protein was measured with a variation of a sandwich ELISA that was assembled from commercially available antibodies as well as reagents and instrumentation procured from Meso Scale Discovery (MSD). Degradation parameter, DC50, is not suitable for PROTACs that induce partial/incomplete DR curves at a fixed time point; maximum drop in target protein level (Dmax) >>0. Conversely, the area under the curve (AUC) can be calculated as a degradation activity parameter for any DR curve, and it encompasses both the degradation potency (i.e., DC50) and efficacy (i.e., Dmax) of PROTACs. […]\nPlates were washed with 300 µL per well MSD wash buffer (MSD R61TX-1) between each step. Following the last incubation, plates were washed with MSD wash buffer then 150 µL of MSD read buffer (MSD R92TC-2) was added to each well. Plates were immediately read on a MSD plate reader (MSD Sector Imager 6000).\nMSD electrochemiluminescence signals were subtracted by the average background signal from wells with lysis buffer alone. […] The area of each trapezoid was determined using the equation A = (1/2)(h)(b1 + b2), where h = 1 (distance between points), b1 = POC of the first point and b2 = POC of the second point. […]"}, "[2]": {"biological_target": "T2, VBC / BRD4^BD1 ternary complex (Homo sapiens, UniProt O60885+P40337)", "T2 construct": "VHL (54-213), ElonginB (17-112) ElonginC (1-104); BRD4 (44-168); His6 (N, cleaved yes); made in house", "experiment": "SPR ternary complex binding, VBC surface with preformed PROTAC/BRD4 BD1 complex", "experimental": "(§1) SPR experiments were performed on a Biacore 8 K or T200 instrument (Cytiva). […] The running buffer during immobilization was PBS with 0.005% P20. Either high-density (3000-4000 RU) or low-density (300-400 RU) VBC-functionalized surfaces were created, followed by equilibration in the running buffer for 3 h.\n(§2) PROTACs (10 mM in 100% DMSO) were initially prepared at 200 nM in a running buffer (20 mM Tris pH 8.0, 250 mM NaCl, 1 mM TCEP, 0.01% P20, 0.2 mg/ml BSA) with a concentration of 2% DMSO. This solution was mixed at 1:1 ratio with a solution of 5 μM of the SMARCA2 or BRD4 bromodomain protein in the running buffer. […] For ternary experiments, solutions were injected sequentially in single-cycle kinetic format without regeneration (contact time 60 s, flow rate 80 μL/min, dissociation time 300 s) using a stabilization period of 60 s and syringe wash (50% DMSO) between injections onto a low-density VBC-functionalized surface.\n(§3) Raw sensorgrams were processed by performing double reference subtraction, solvent correction, and analysis was done using Biacore Insight Evaluation Software. Kinetic analysis was performed by fitting data to a 1:1 Langmuir interaction model and a steady-state affinity model was used to evaluate equilibrium binding affinity."}, "[3]": {"biological_target": "T3, VBC / BRD4^BD2 ternary complex (Homo sapiens, UniProt O60885+P40337)", "T3 construct": "VHL (54-213), ElonginB (17-112) ElonginC (1-104); His6 (N); made in house", "experiment": "SPR ternary complex binding, VBC surface with preformed PROTAC/BRD4 BD2 complex", "experimental": "as §1, §2, §3"}, "BRD4 [4]": {"biological_target": "T1, BRD4", "experiment": "BRD4 degradation time course in A375 cells (MSD)", "assay_type": "cell-based", "conditions": "single concentration at or near maximal activity", "text": "To measure the rate of protein degradation, we treated A375 cells with a single concentration of each PROTAC and measured the decrease in target abundance over time as shown in Figs. 4b and5b.\nMSD electrochemiluminescence signals were subtracted by the average background signal from wells with lysis buffer alone. Normalized MSD values (POC) for individual compound treated wells were acquired by dividing background-subtracted assay signal by signal from vehicle control wells (cells + 0.1% DMSO) and multiplying by 100. This POC data was graphed using a nonlinear regression curve fit xy analysis and a log(inhibitor) vs response —variable slope (four parameter) model for dose response curves (Graphpad Prism 9, San Diego, CA, USA). To calculate area under the curve, all points on the curve were connected and vertical lines were drawn from each point down to y = 0, generating a series of trapezoids. The area of each trapezoid was determined using the equation A = (1/2)(h)(b1 + b2), where h = 1 (distance between points), b1 = POC of the first point and b2 = POC of the second point. The sum of all trapezoids provides an approximate area under the curve (AUC). For half-life (t1/2) determination in time course studies, a one-phase decay model was used for curve fitting and the time at which the curve crossed 50 POC was determined through interpolation (Graphpad Prism 9, San Diego, CA, USA)."}},
  "data": [
    {"smiles": "Cc1ncsc1-c1ccc(CNC(=O)[C@@H]2C[C@@H](O)CN2C(=O)[C@@H](NC(=O)COCCOCCOCCNC(=O)C[C@@H]2N=C(c3ccc(Cl)cc3)c3c(sc(C)c3C)-n3c(C)nnc32)C(C)(C)C)cc1", "note": "[Compound 17, (2S,4R)-1-((S)-2-(tert-Butyl)-17-((S)-4-(4-chlorophenyl)-2,3,9-trimethyl-6H-thieno[3,2-f][1,2,4]triazolo[4,3-a][1,4]diazepin-6-yl)-4,16-dioxo-6,9,12-trioxa-3,15-diazaheptadecan-1-oyl)-4-hydroxy-N-(4-(4-methylthiazol-5-yl)benzyl)pyrrolidine-2-carboxamide, reference compound]", "values": [
      {"measurement": "Dmax", "setting": "BRD4 [1]; A-375", "value": 98, "unit": "%"},
      {"measurement": "AUC (area under the dose-response curve)", "setting": "BRD4 [1]; BRD4 MSD assay, A375 cells, 4 h", "value": 39},
      {"measurement": "α (cooperativity, KLP/KLPT)", "setting": "[2]; BRD4 (BD1)", "value": 1.4},
      {"measurement": "ternary complex binding affinity with BRD4^BD1 weaker compared to BRD4^BD2", "setting": "[2]; SPR, BD1 vs BD2", "value": 10, "unit": "fold"},
      {"measurement": "α (cooperativity, KLP/KLPT)", "setting": "[3]", "value": 13.7},
      {"measurement": "Initial Degradation Rate", "setting": "BRD4 [4]", "value": 1.95, "unit": "%/min"}
    ]}
  ]
}
